The assay deals with Plasminogen (Homo sapiens, UniProt P00747). In words: Tested for the Inhibition of the catalytic activity of human plasmin at 25 degree C and pH 7.5.

Protein sequences, listed by entry. Tags and fused reporters are not part of them. Residues count along the entry.
UniProt P00747, 97-580 limits assumed: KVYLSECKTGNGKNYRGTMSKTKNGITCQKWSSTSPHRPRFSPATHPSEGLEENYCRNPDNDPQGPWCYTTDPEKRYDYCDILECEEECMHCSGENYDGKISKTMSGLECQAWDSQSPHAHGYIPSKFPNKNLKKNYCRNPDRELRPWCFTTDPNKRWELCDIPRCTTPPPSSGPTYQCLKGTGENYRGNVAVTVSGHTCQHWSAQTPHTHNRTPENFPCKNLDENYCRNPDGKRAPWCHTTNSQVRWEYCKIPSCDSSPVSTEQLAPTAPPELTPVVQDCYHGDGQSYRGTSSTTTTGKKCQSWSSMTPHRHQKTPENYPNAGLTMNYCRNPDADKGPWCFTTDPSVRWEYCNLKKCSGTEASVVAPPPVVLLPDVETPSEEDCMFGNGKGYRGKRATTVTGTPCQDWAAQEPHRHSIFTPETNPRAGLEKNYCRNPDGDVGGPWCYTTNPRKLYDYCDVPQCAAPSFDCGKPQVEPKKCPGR
UniProt P00747, 581-810 limits assumed: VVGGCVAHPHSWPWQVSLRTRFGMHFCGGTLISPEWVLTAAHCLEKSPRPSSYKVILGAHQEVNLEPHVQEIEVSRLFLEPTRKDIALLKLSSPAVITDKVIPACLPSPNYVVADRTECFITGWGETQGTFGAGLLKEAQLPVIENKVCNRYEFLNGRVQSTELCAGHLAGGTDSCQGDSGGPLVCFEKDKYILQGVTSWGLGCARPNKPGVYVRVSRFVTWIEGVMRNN

In the case of `N=C(N)c1ccccc1` [BENZAMIDINE], the affinity, expressed as Ki, was 350 µM.

Usually Ki stands for a dissociation constant, usually derived from enzyme kinetics or from competition with a known ligand. A low value points to a stronger hold on the target.
